Results reported in patent US9187486B2 (AMGEN INC., priority 2011, dated 2015).
Where two headings read alike, the source gives them in different places.

The chains behind the UniProt entries cited, without tags or fusion partners. Where a name states a change or a piece, a line headed by the entry shows the natural chain unless it says otherwise.
UniProt Q9P1W9: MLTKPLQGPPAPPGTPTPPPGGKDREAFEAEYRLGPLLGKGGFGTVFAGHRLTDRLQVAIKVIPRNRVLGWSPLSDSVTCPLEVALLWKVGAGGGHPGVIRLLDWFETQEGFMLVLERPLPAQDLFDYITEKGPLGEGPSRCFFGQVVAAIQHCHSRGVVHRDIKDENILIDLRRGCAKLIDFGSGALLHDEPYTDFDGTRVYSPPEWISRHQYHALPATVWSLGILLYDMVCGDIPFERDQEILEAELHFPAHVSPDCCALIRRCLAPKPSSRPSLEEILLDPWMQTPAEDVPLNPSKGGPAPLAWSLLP
UniProt P11309, whole entry: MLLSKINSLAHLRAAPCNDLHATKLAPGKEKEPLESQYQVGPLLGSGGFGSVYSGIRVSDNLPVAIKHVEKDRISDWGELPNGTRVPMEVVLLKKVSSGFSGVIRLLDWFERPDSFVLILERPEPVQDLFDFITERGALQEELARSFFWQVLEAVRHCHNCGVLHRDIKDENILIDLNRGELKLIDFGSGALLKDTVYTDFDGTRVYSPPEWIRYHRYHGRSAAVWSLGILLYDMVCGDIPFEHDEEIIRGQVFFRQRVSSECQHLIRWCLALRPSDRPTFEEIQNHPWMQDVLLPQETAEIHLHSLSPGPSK

Columns and labels:
Pim-2 = Pim-2 (Homo sapiens (Human), UniProt Q9P1W9); test: Pim enzyme assay (HTRF, phosphorylation of biotinylated-BAD (S112) peptide), Pim-2; assay type: biochemical; conditions: read-out: Pim-2 IC50 IP
Text: (§1) Full-length human cDNAs encoding Pim-1 (MGC ID 3913552) or Pim-2 (IMAGE ID 5092935) were purchased from Invitrogen, Carlsbad, Calif. These cDNAs were used as templates in PCR reactions to produce full-length DNA clones of the PIMs. Oligonucleotide PCR primers for Pim-1 were 5′-[…]-3′ and 5′-[…]-3′. Oligonucleotide PCR primers for Pim-2 were 5′-[…]-3′ and 5′-[…]-3′. PCR products were digested with BclI and EcoRI for Pim-1 and BamHI and EcoRI for Pim-2 and ligated into a modified baculovirus transfer vector (pFastBac 1) cleaved with BamHI and EcoRI. For bacterial expression, the same cleaved PCR products encoding Pim-1 or Pim-2 were ligated into a modified E. coli expression vector pET28(a) cleaved with BamHI and EcoRI. Amino-terminal hexahistidine tags followed by a thrombin cleavage site were previously added to the vectors using standard methods of molecular biology. Recombinant baculoviruses expressing Pim-1 or Pim-2 were made using standard methods (Fastbac manual, Invitrogen, Carlsbad, Calif.). Infection of Sf9 cells was done at an m.o.i. of greater than 5 for 24-48 h. Cells were harvested by centrifugation and frozen at −80 C. For E. coli expression, cells carrying pET28-His6-Th-Pim-1 or pET28-His6-Th-Pim-2 were picked from a single colony and grown o/n in LB media. The o/n culture was used to inoculate a 2 liter flask with 500 mL media. This was grown o/n and used to inoculate 15-20 liters of Terrific Broth in a New Brunswick Scientific fermentor. The E. coli were grown at 37° C. to and OD600>1.6. The temperature was dropped to 18° C. and o/n expression was induced with 0.5 mM IPTG. Cells were harvested by centrifugation and frozen at −80° C.
(§2) The frozen cell pellets were thawed by stirring in chilled lysis buffer (0.05 M HEPES, pH 8.0, 0.25 M NaCl, 0.01 M 2-mercaptoethanol, 10% (w/v) glycerol, 0.5% (v/v) protease inhibitor cocktail (Sigma P-8340) at a ratio of 1 L/200 g cells until homogeneous. The thawed suspension was applied to a microfluidizer at 10,000 PSI to disrupt the cells and the whole lysates were clarified by centrifugation at 50,000×g for 90 min, 4° C. Imidazole was added to the clarified lysate to a final concentration of 2.5 mM and the lysate was mixed with 10 mL of Talon resin (Clontech) and the slurry rocked gently overnight at 4° C. The slurry was centrifuged at 1,000×g for 5 min, the supernatant decanted, and the resin suspended in 40 mL of lysis wash buffer (lysis buffer at 0.75 M NaCl). This step was repeated 3× and the resin was transferred to a 2.5 cm glass column. Ten column volumes of wash buffer (0.05 M HEPES, pH 8.0, 0.1 M NaCl, 0.01 M 2-mercaptoethanol, 10% (w/v) glycerol) were applied to the resin followed by 10 column volumes of elution buffer (0.05 M HEPES, pH 8.0, 0.25 M NaCl, 0.01 M 2-mercaptoethanol, 10% (w/v) glycerol, 0.1 M imidazole). Fractions were analyzed by SDS-PAGE and those containing the protein of interest were pooled and concentrated. The concentrated protein was applied to an Amersham Superdex 75 (XK 26/60) column equilibrated in 0.025 M Tris-HCl, pH 7.5, 0.1 M NaCl, 0.01 M 2-mercaptoethanol, 10% (w/v) glycerol. […] Fractions containing the monomeric protein of interest were pooled, concentrated to ˜2 mg/mL, and stored at −80° C.
(§3) The phosphorylation of biotinylated-BAD (S112) peptide by full length recombinant Pim-1, Pim-2, or Pim-3 protein was detected with streptavidin:Allophycocyanin (APC) conjugate and a europium (Eu) labeled antibody directed against phosphorylated-BAD (S112). Excitation of Eu by a high energy laser light (337 nm) leads to a transfer of energy to the APC molecule, and results in an emission at 665 nm. The fluorescence is directly proportional to the amount of phosphorylated BAD peptide present in the reaction.

Pim-1 = Pim-1 (Homo sapiens (Human), UniProt P11309); test: Pim enzyme assay (HTRF, phosphorylation of biotinylated-BAD (S112) peptide), Pim-1; assay type: biochemical; conditions: read-out: Pim-1 IC50 IP
Text: as §1, §2, §3

[1] = tested on: KMS-12-BM myeloma cell line; test: Pim cell assay: phospho-BAD (S112) and total BAD in KMS-12-BM cells; assay type: cell-based; conditions: read-out: KMS-12-BM IC50 IP
Procedure: The KMS-12-BM myeloma cell line was used to determine the in vitro cellular inhibition of Pim kinases. Disruption of Pim signaling by Pim inhibitors was determined by measuring the levels of phospho-BAD (S112) and total BAD. […] The cells were then incubated overnight at 37° C., 5% CO2. […] In addition to the 10-point dosing curve of the test compound, DMSO alone was run as a control. This dilution in DMSO was then diluted again into cell growth medium. Aliquots (11.1 uL) of the compound diluted in growth medium were then transferred to the appropriate wells of the 96-well plates containing cells to yield a final DMSO concentration of 0.3%. The cell plates were then incubated with compound for 1 hour and 50 minutes at 37° C., 5% CO2. After the 1 hour and 50 min incubation, the cell plates were spun at 1000 RPM for 10 minutes and the compound-containing medium was removed. […] The cell plates containing lysis buffer were then immediately stored at −70° C. These prepared lysates were then assayed for phospho-(S112) and total-BAD according to the manufacturer's protocol (Meso Scale Diagnostics, Cat # K15103D-3). The plates were read on the MSD Sector Imager 6000, and results were calculated according to the assay protocol: ((% Phosphoprotein=((2×Phospho signal)/(Phospho signal+Total signal))×100)).

[2] = full length recombinant Pim-2, biotinylated-BAD (S112) peptide, HTRF, 96-well
[3] = full length recombinant Pim-1, biotinylated-BAD (S112) peptide, HTRF, 96-well

Structure (SMILES)	IC50 (Pim-2; [2]) [nM]	IC50 (Pim-1; [3]) [nM]	IC50 ([1]; KMS-12-BM cells, phospho-BAD (S112)/total BAD, 1 hour and 50 minutes incubation, tris(2,2,2-trifluoroacetate)) [nM]	IC50 ([1]; Homo sapiens, KMS-12-BM) [nM]	IC50 (Pim-2) [nM]	IC50 (Pim-1) [nM]
C[C@H]1CC[C@H](N)CN1c1ccncc1Nc1ncc2ccc(-c3c(F)cccc3F)nn12 (single isomer, unassigned) [Example 88, N-(4-(5-amino-2-methylpiperidin-1-yl)pyridin-3-yl)-2-(2,6-difluorophenyl)imidazo[1,5-b]pyridazin-7-amine tris(2,2,2-trifluoroacetate)]	29	6.6				
C[C@H]1CC[C@@H](N)CN1c1ccncc1Nc1ncc2ccc(-c3ncccc3F)nn12 (single isomer, unassigned) [Example 94, N-(4-((cis)-5-amino-2-methylpiperidin-1-yl)pyridin-3-yl)-2-(3-fluoropyridin-2-yl)imidazo[1,5-b]pyridazin-7-amine tris(2,2,2-trifluoroacetate)]	102	19.8				
C[C@H]1CC[C@@H](N)CN1c1ccncc1Nc1ncc2ccc(-c3ncccc3F)nn12 (single isomer, unassigned) [Example 95, N-(4-((cis)-5-amino-2-methylpiperidin-1-yl)pyridin-3-yl)-2-(3-fluoropyridin-2-yl)imidazo[1,5-b]pyridazin-7-amine tris(2,2,2-trifluoroacetate)]	1.3	0.1	258			
C[C@H]1CC[C@H](N)CN1c1ccncc1Nc1ncc2ccc(-c3ncccc3F)nn12 (single isomer, unassigned) [Example 96, N-(4-((trans)-5-amino-2-methylpiperidin-1-yl)pyridin-3-yl)-2-(3-fluoropyridin-2-yl)imidazo[1,5-b]pyridazin-7-amine tris(2,2,2-trifluoroacetate)]	136	15.3				
C[C@H]1CC[C@H](N)CN1c1ccncc1Nc1ncc2ccc(-c3ncccc3F)nn12 (single isomer, unassigned) [Example 97, N-(4-((trans)-5-amino-2-methylpiperidin-1-yl)pyridin-3-yl)-2-(3-fluoropyridin-2-yl)imidazo[1,5-b]pyridazin-7-amine tris(2,2,2-trifluoroacetate)]	2.8	0.2				
C[C@H]1C[C@H](N)CN(c2ccncc2Nc2ncc3ccc(-c4c(F)cccc4F)nn23)C1 [Example 33, N-(4-((3S,5S)-3-amino-5-methylpiperidin-1-yl)pyridin-3-yl)-2-(2,6-difluorophenyl) imidazo[1,5-b]pyridazin-7-amine]	0.8	0.4				
C[C@H]1CN(c2ccncc2Nc2ncc3ccc(-c4c(F)cccc4F)nn23)[C@@H](C)CN1 [Example 49, 2-(2,6-difluorophenyl)-N-(4-((2S,5S)-2,5-dimethylpiperazin-1-yl)pyridin-3-yl)imidazo[1,5-b]pyridazin-7-amine]	113	18.2				
C[C@H]1[C@@H](N)CCCN1c1ccncc1Nc1ncc2ccc(-c3ncccc3F)nn12 [Example 75, N-(4-((2S,3S)-3-amino-2-methyl-1-piperidinyl)-3-pyridinyl)-2-(3-fluoro-2-pyridinyl)imidazo[1,5-t]pyridazin-7-amine]				4630		
C[C@@H]1[C@@H](N)CCCN1c1ccncc1Nc1ncc2ccc(-c3ncccc3F)nn12 [Example 76, N-(4-((2R,3S)-3-amino-2-methyl-1-piperidinyl)-3-pyridinyl)-2-(3-fluoro-2-pyridinyl)imidazo[1,5-b]pyridazin-7-amine]				364	1.8	0.3
